From US20260022143A1, “Cyclic Peptide Inhibitors of IL-23” (JANSSEN PHARMACEUTICA NV, priority 2022, published 2026)

What follows are molecules tested against T1, IL-23R (Homo sapiens, UniProt Q5VWK5) (assay: IL23R Reporter Assay). Settings: HEK293 cells containing IL-23R, IL-12RP1 and STAT-inducible firefly luciferase reporter; 10 ng/mL IL-23 (EC90); 5 h at 37° C.; read-out: IL23R Reporter Assay.
T1 construct: host or cells: HEK293
T1 sequence (Q5VWK5 24-629): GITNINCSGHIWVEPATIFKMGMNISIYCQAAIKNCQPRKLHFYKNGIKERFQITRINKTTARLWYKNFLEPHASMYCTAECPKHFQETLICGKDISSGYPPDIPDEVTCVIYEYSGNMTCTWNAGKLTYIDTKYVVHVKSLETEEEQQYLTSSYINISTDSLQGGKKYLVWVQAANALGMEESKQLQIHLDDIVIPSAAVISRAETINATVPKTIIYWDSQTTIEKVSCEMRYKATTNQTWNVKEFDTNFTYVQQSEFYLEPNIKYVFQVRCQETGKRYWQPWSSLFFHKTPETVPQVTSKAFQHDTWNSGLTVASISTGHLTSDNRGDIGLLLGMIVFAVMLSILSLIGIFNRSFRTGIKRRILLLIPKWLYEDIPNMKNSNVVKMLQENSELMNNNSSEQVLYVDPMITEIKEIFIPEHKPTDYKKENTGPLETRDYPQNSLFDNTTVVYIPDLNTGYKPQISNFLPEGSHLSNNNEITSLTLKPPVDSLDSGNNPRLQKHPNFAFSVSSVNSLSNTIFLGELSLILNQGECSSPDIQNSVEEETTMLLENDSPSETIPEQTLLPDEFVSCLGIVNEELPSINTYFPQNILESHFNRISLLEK
Assay type: cell-based

**Q.** How did the IC50 turn out when `CC(=O)NCCCC[C@@H]1NC(=O)[C@H](Cc2c[nH]c3c(C)cccc23)NC(=O)[C@H]([C@@H](C)O)NC(=O)[C@H](CC(N)=O)NC(=O)[C@@H](NC(=O)C(COCCOCC[N+](C)(C)C)NC(C)=O)C(C)(C)SSC(C)(C)[C@@H](C(=O)N[C@@H](Cc2ccc(OCCCCC[N+](C)(C)C)cc2)C(=O)N[C@@H](Cc2ccc3ccccc3c2)C(=O)NC2(C(=O)N[C@@H](CCC(=O)O)C(=O)N[C@@H](CC(N)=O)C(=O)N[C@@H](Cc3cccnc3)C(=O)N(C)CC(N)=O)CCOCC2)NC1=O` (mixture of isomers) [compound 555, MeCO-APEG2Ser(RS)-Pen(3)-N-T-7MeW-K(Ac)-Pen(3)-TMAPF-2Nal-THP-E-N-3Pya-Sar-CONH2] was run?
**A.** 4.7 nM

**Q.** For `CC(=O)N[C@@H]1C(=O)N[C@@H](CC(=O)N(C)C)C(=O)N[C@@H]([C@@H](C)O)C(=O)N[C@@H](Cc2c[nH]c3c(C)cccc23)C(=O)N[C@@H](COCCOCC[N+](C)(C)C)C(=O)N[C@H](C(=O)N[C@@H](Cc2ccc(OCCOCCOCC[N+](C)(C)C)cc2)C(=O)N[C@@H](Cc2ccc3ccccc3c2)C(=O)NC2(C(=O)N[C@@H](COCCOCC[N+](C)(C)C)C(=O)N[C@@H](CC(N)=O)C(=O)N[C@@H](Cc3cccnc3)C(=O)N(C)CC(=O)N(C)C)CCOCC2)C(C)(C)SSC1(C)C` (relative stereo) [compound 256, MeCO-Pen(3)-N(N(Me)2)-T-7MeW-APEG2Ser(S*)-Pen(3)-APEG3F-2Nal-THP-APEG2Ser(S*)-N-3Pya-Sar-CON(Me)2], which IC50 is on record?
**A.** 120 nM

**Q.** How did the IC50 turn out when `CC(=O)N(C)CCCC[C@@H]1NC(=O)[C@H](Cc2c[nH]c3c(C)cccc23)NC(=O)[C@H]([C@@H](C)O)NC(=O)[C@H](CC(=O)N(C)C)NC(=O)[C@@H](NC(=O)CCOCCOCC[N+](C)(C)C)C(C)(C)SSC(C)(C)[C@@H](C(=O)N[C@@H](Cc2ccc(OCCN(CCOCC[N+](C)(C)C)CCOCC[N+](C)(C)C)cc2)C(=O)N[C@@H](Cc2ccc3ccccc3c2)C(=O)NC2(C(=O)N[C@@H](CCCCN(C)C(C)=O)C(=O)N[C@@H](CC(N)=O)C(=O)N[C@@H](Cc3cccnc3)C(=O)N(C)CC(=O)N(C)C)CCOCC2)NC1=O` (relative stereo) [compound 266, cPEG3aCO-Pen(3)-N(N(Me)2)-T-7MeW-K(NMeAc)-Pen(3)-AEF(BisPEG2a)(S*)-2Nal-THP-K(NMeAc)-N-3Pya-Sar-CON(Me)2] was run?
**A.** 2.4 nM

**Q.** How did the IC50 turn out when `CC(=O)N(C)CCCC[C@@H]1NC(=O)[C@H](Cc2c[nH]c3c(C)cccc23)NC(=O)[C@H]([C@@H](C)O)NC(=O)[C@H](CC(=O)N(C)C)NC(=O)[C@@H](NC(=O)CCOCCOCC[N+](C)(C)C)C(C)(C)SSC(C)(C)[C@@H](C(=O)N[C@@H](Cc2ccc(OCCN)cc2)C(=O)N[C@@H](Cc2ccc3ccccc3c2)C(=O)NC2(C(=O)N[C@@H](CCN(C)C(C)=O)C(=O)N[C@@H](CC(N)=O)C(=O)N[C@@H](Cc3cccnc3)C(=O)N(C)CC(=O)N(C)C)CCC(F)(F)C2)NC1=O` (single isomer, unassigned) [compound 180, cPEG3aCO-Pen(3)-N(N(Me)2)-T-7MeW-K(NMeAc)-Pen(3)-AEF-2Nal-diFCpx-Dab(NMeAc)-N-3Pya-Sar-CON(Me)2] was run?
**A.** 2.9 nM

**Q.** `CC(=O)N(C)CCCC[C@@H]1NC(=O)[C@H](Cc2c[nH]c3c(C)cccc23)NC(=O)[C@H]([C@@H](C)O)NC(=O)[C@H](CC(=O)N(C)C)NC(=O)[C@@H](NC(=O)CCOCCOCC[N+](C)(C)C)C(C)(C)SSC(C)(C)[C@@H](C(=O)N[C@@H](Cc2ccc(OCC3CCC([N+](C)(C)C)CC3)cc2)C(=O)N[C@@H](Cc2ccc3ccccc3c2)C(=O)NC2(C(=O)N[C@@H](CCCCN(C)C(C)=O)C(=O)N[C@@H](CC(N)=O)C(=O)N[C@@H](Cc3cccnc3)C(=O)N(C)CC(=O)N(C)C)CCOCC2)NC1=O` (single isomer, unassigned) [compound 210, cPEG3aCO-Pen(3)-N(N(Me)2)-T-7MeW-K(NMeAc)-Pen(3)-ACHMF-2Nal-THP-K(NMeAc)-N-3Pya-Sar-CON(Me)2] was tested. Which IC50 did it give?
**A.** 2.2 nM

**Q.** How did the IC50 turn out when `CC(=O)N(C)CCCC[C@@H]1NC(=O)[C@H](Cc2c[nH]c3c(C)cccc23)NC(=O)[C@H]([C@@H](C)O)NC(=O)[C@H](CC(=O)N(C)C)NC(=O)[C@@H](NC(=O)CCOCCOCC[N+](C)(C)C)C(C)(C)SSC(C)(C)[C@@H](C(=O)N[C@@H](Cc2ccc(OCC3CCC([N+](C)(C)C)CC3)cc2)C(=O)N[C@@H](Cc2ccc3ccccc3c2)C(=O)NC2(C(=O)N[C@@H](CCCCN(C)C(C)=O)C(=O)N[C@@H](CC(N)=O)C(=O)N[C@@H](Cc3cccnc3)C(=O)N(C)CC(=O)N(C)C)CCOCC2)NC1=O` (single isomer, unassigned) [compound 222, cPEG3aCO-Pen(3)-N(N(Me)2)-T-7MeW-K(NMeAc)-Pen(3)-ACHMF-2Nal-THP-K(NMeAc)-N-3Pya-Sar-CON(Me)2] was run?
**A.** 3.3 nM

**Q.** With `CC(=O)NCCCC[C@@H]1NC(=O)[C@H](Cc2c[nH]c3c(C)cccc23)NC(=O)[C@H]([C@@H](C)O)NC(=O)[C@H](CC(N)=O)NC(=O)[C@@H](NC(C)=O)C(C)(C)SSC(C)(C)[C@@H](C(=O)N[C@@H](Cc2ccc(OCC3CCC([N+](C)(C)C)CC3)cc2)C(=O)N[C@@H](Cc2ccc3ccccc3c2)C(=O)NC2(C(=O)N[C@@H](CCCCNC(C)=O)C(=O)N[C@@H](CC(N)=O)C(=O)N[C@@H](Cc3cccnc3)C(=O)N(C)CC(N)=O)CCOCC2)NC1=O` (single isomer, unassigned) [compound 530, MeCO-Pen(3)-N-T-7MeW-K(Ac)-Pen(3)-ACHMF(S*, S*)-2Nal-THP-K(Ac)-N-3Pya-Sar-CONH2] as the molecule, how does the IC50 read?
**A.** 2.9 nM

**Q.** With `CC(=O)NCCCC[C@H](NC(=O)C1(NC(=O)[C@H](Cc2ccc3ccccc3c2)NC(=O)[C@H](Cc2ccc(OCCN)cc2)NC(=O)[C@H]2NC(=O)[C@H](CCCCN(C)C(C)=O)NC(=O)[C@H](Cc3c[nH]c4c(C)cccc34)NC(=O)[C@H]([C@@H](C)O)NC(=O)[C@H](CC(N)=O)NC(=O)[C@@H](NC(C)=O)C(C)(C)SSC2(C)C)CCOCC1)C(=O)N[C@@H](CC(N)=O)C(=O)N[C@@H](Cc1cccnc1)C(=O)N(C)CC(N)=O` [SEQ ID 57] as the molecule, how does the IC50 read?
**A.** 2.9 nM

**Q.** `CNCCOc1ccc(C[C@H](NC(=O)[C@H]2NC(=O)[C@H](CCCCN(C)C(C)=O)NC(=O)[C@H](Cc3c[nH]c4c(C)cccc34)NC(=O)[C@H]([C@@H](C)O)NC(=O)[C@H](CC(=O)NC)NC(=O)[C@@H](NC(C)=O)C(C)(C)SSC2(C)C)C(=O)N[C@@H](Cc2ccc3ccccc3c2)C(=O)NC2(C(=O)N[C@@H](CCCCN(C)C(C)=O)C(=O)N[C@@H](CC(N)=O)C(=O)N[C@@H](Cc3cccnc3)C(=O)N(C)CC(=O)NC)CCOCC2)cc1` [SEQ ID 67] was tested. Which IC50 did it give?
**A.** 2.3 nM

**Q.** How did the IC50 turn out when `CC(=O)NCCCC[C@@H]1NC(=O)[C@H](Cc2c[nH]c3c(C)cccc23)NC(=O)[C@H]([C@@H](C)O)NC(=O)[C@H](CC(N)=O)NC(=O)[C@@H](NC(C)=O)C(C)(C)SSC(C)(C)[C@@H](C(=O)N[C@@H](Cc2ccc(OCCN)cc2)C(=O)N[C@@H](Cc2ccc3ccccc3c2)C(=O)NC2(C(=O)N[C@@H](CCC(=O)O)C(=O)N[C@@H](CC(N)=O)C(=O)N[C@@H](Cc3cccnc3)C(=O)N(C)CC(=O)N3CCOCC3)CCOCC2)NC1=O` [SEQ ID 112, MeCO-Pen(3)—N-T-7MeW—K(Ac)-Pen(3)-AEF-2Nal-THIP-E-N-3Pya-Sar-COMor] was run?
**A.** 5.3 nM

**Q.** For `CC(=O)NCCCC[C@@H]1NC(=O)[C@H](Cc2c[nH]c3c(C)cccc23)NC(=O)[C@H]([C@@H](C)O)NC(=O)[C@H](CC(N)=O)NC(=O)[C@@H](NC(=O)[C@@H](CCCNC(=N)N)NC(C)=O)C(C)(C)SSC(C)(C)[C@@H](C(=O)N[C@@H](Cc2ccc(OCCN)cc2)C(=O)N[C@@H](Cc2ccc3ccccc3c2)C(=O)NC2(C(=O)N[C@@H](CCC(=O)O)C(=O)N[C@@H](CC(N)=O)C(=O)N(C)[C@H](Cc3ccc(O)cc3)C(N)=O)CCOCC2)NC1=O` [compound 34], which IC50 is on record?
**A.** 330 nM
